Literature values as cited in paper PMC9971260 (Scientific Reports, 2023).

System: COX-2
Settings: Coxibs, selective COX-2 inhibition; no reference given; cited from earlier work

Compound: Cc1onc(-c2ccccc2)c1-c1ccc(S(N)(=O)=O)cc1 [valdecoxib]
- IC50 against COX-2 (in words): low-nanomolar
